Results from paper PMC5740067 (Scientific Reports, 2017).
Where two headings read alike, the source gives them in different places.

By UniProt entry, the sequences of proteins in these tests, tags left out. Residues count along the entry.
UniProt P0A4F8, 21-276: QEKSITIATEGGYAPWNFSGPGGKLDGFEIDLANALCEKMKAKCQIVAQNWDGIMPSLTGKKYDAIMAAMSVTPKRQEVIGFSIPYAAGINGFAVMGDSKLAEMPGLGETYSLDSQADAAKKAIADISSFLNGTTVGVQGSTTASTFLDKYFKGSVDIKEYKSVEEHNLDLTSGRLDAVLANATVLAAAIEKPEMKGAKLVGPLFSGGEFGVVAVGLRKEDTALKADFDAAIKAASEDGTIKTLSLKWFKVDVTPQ
UniProt P35120, 26-283: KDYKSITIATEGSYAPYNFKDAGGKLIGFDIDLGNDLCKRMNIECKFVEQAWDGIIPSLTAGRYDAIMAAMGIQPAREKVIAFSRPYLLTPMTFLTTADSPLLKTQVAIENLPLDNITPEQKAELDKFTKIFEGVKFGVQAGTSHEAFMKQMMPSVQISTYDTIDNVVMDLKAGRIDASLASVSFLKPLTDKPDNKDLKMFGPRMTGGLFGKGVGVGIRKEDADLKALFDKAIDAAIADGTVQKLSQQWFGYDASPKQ

Assays:
OccJ WT [1] = molecular target: T1, OccJ WT (Agrobacterium tumefaciens, UniProt P0A4F8); assay type: binding; settings: intrinsic protein fluorescence titration; 20 °C; 50 mM Tris-HCl pH 8.0, 150 mM NaCl; 1 µM protein; read-out: K D (F)
T1 construct: The mature PBP OccJ (256 aa without the signal peptide) expression plasmid was obtained by cloning the occJ gene lacking the first twenty residues; hexahistidine (C); made in house; host or cells: E. coli BL21
Method: (§1) Binding of ligands to OccJ, NocT, LAO and protein mutants was monitored by autofluorescence by exciting the protein at a wavelength of 295 nm and monitoring the quenching of fluorescence emission of tryptophans at 335 nm. All experiments were performed at 20 °C in 96 wells plates (1/2 Area Plate-96F, Perkin Elmer) using Tecan Infinite M1000 reader (Tecan), in 50 mM Tris-HCl pH 8.0, 150 mM NaCl buffer with a fixed amount of proteins (1 µM) and increasing concentrations of ligand. […] The data were analysed using Origin® 7 software and fitted to the equation f = ΔFluorescencemax * abs(x)/(K D + abs(x)).

NocT WT [2] = molecular target: T2, NocT WT (Agrobacterium fabrum, UniProt P35120); assay type: binding, Agrobacterium tumefaciens; settings: fluorescence titration; 20 °C; pH 8.0; octopine family members and analogues; read-out: Kd (F)
T2 construct: Cloning of mature OccJ, NocT-G97S, OccJ-S91G, OccJ-N202D, LAO and LAO-Q122A; made in house
Method: as §1

OccJ WT [3] = molecular target: T1, OccJ WT; assay: OccJ WT ligand binding, isothermal titration microcalorimetry; settings: ITC, 20 °C
Method: (§2) Isothermal titration microcalorimetry experiments were performed with an ITC200 isothermal titration calorimeter from MicroCal (GE Healthcare). The experiments were carried out at 20 °C. Protein concentration in the microcalorimeter cell (0.2 mL) varied from 20 to 150 µM. Nineteen injections of 2 µL of ligand solution (amino acids, opines and octopine derivatives) at concentration ranging from 240 µM to 1.5 mM were performed at intervals of 180 s while stirring at 500 rpm. The experimental data were fitted to theoretical titration curves with software supplied by MicroCal (ORIGIN®). This software uses the relationship between the heat generated by each injection and ΔH (enthalpy change in kcal/mol), Ka (the association binding constant in M^−1), n (the number of binding sites), total protein concentration and free and total ligand concentrations.

NocT WT [4] = molecular target: T2, NocT WT; assay type: binding, Agrobacterium tumefaciens; settings: ITC, 20 °C
Method: as §2

Molecule	Kd (OccJ WT [1]) [nM]	Kd (NocT WT [2]) [nM]	Kd (OccJ WT [3]) [nM]	Kd (NocT WT [4]) [nM]
homo-octopine	230 ± 30	5400 ± 600	530 ± 40	30600 ± 2100
NCCC[C@H](NCC(=O)O)C(=O)O [noroctopinic acid]	230 ± 400	–	–	–
